# Binding of CDR-mutated scFvs to a peptide of the spike HR2 region

Data: MIT Lincoln Laboratory AlphaSeq set, Engelhart et al. 2022, doi:10.1038/s41597-022-01779-4, as distributed in FLAb.

All variants were tested on one target, the spike HR2 peptide PDVDLGDISGINAS (SARS-CoV-2).

Each scFv is VH, a (GGGGS)3 linker, VL, as in the parent Ab-95, and differs from it in the CDRs of the light chain only.
VH: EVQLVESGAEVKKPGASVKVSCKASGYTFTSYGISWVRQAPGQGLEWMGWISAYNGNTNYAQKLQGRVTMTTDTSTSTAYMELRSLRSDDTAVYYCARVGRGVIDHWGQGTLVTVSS
VL: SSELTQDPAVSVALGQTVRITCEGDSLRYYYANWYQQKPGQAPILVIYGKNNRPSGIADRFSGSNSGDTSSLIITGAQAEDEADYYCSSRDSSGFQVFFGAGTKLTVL

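The parent was found by panning a naive human phage display library on the peptide. In library AAYL52, one, two or three CDR residues were substituted; doubles and triples were drawn at random. The assay is AlphaSeq: two haploid yeast populations carry antibody and antigen on their surface. Mating (16 h, 30 °C) was followed by selection of diploids and sequencing of their barcodes. Read counts were normalised to the haploid input and turned into Kd by a linear fit to BCL2-family pairs of known affinity, for each replicate. Each pool was mated in three replicate cultures.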

Positions count from residue 1 of the parent VL; N52F puts F in place of N.
All variants listed here change Q96 of the VL, counted from its first residue.
Numbers give log10(Kd / nM), so 0 is 1 nM and 3 is 1 µM. Smaller is tighter.
"n.d." marks a missing value. The strain was present, yet no cells mated with the target were sequenced in that replicate, which points to weak or no binding.
For reference, the parent read 2.31 as the reference entry and 2.25 as a member of this library.
As a blank, each scFv also met three strains without target: over library AAYL52, 28% of these pairings were detected, typically at 3.91 and seldom below 2.90. The control count says in how many pairings with the empty strains this scFv gave a signal, with their mean in brackets.

| changes | log10 Kd (nM) by replicate | signal with controls |
|---|---|---|
| N52F Q96E V97Y | 2.80 / 4.03 / n.d. | 3/9 (3.78) |
| Y30P N33M Q96G | n.d. / 4.42 / n.d. | 1/9 (3.09) |
| Y31P D91P Q96T | 3.83 / n.d. / n.d. | 3/9 (4.16) |
| D91H Q96R F98A | 4.27 / n.d. / 3.17 | 2/9 (4.33) |
| L27G R90H Q96A | n.d. / n.d. / n.d. | 0/9 |
| L27D S89Y Q96W | n.d. / n.d. / n.d. | 3/9 (3.77) |
| N52D Q96V F98D | n.d. / 3.08 / n.d. | 2/9 (4.02) |
| E23N Q96A V97F | 2.40 / 2.89 / 2.30 | 6/9 (3.99) |
| S92R Q96F | 2.42 / 2.17 / 2.15 | 3/9 (3.52) |
| S55Q R90N Q96M | n.d. / n.d. / 4.85 | 3/9 (4.56) |
| S93G Q96V | 3.20 / n.d. / 3.61 | 3/9 (3.68) |
| S26T Q96F F98Y | 4.18 / 2.87 / n.d. | 1/9 (3.88) |
| N51F S88K Q96E | 3.74 / 5.10 / n.d. | 3/9 (3.45) |
| A32G K50V Q96I | n.d. / n.d. / 3.97 | 1/9 (4.33) |
| K50N R53G Q96C | 4.25 / 3.33 / 3.22 | 7/9 (4.63) |
| N52F Q96P | 4.00 / n.d. / 3.05 | 3/9 (3.37) |
| E23Y P54Q Q96V | 3.12 / 3.31 / 2.80 | 2/9 (3.62) |
| Y31I S93M Q96C | 3.59 / n.d. / n.d. | 0/9 |
| S88M S89R Q96P | n.d. / n.d. / n.d. | 1/9 (4.00) |
| E23C N33T Q96C | 4.12 / 4.92 / n.d. | 3/9 (4.83) |
| N51P D91P Q96H | 4.41 / n.d. / n.d. | 2/9 (4.17) |
| S26T S55L Q96D | 3.42 / 3.53 / 3.12 | 5/9 (3.75) |
| E23S Y30Q Q96H | 0.67 / 0.64 / -0.07 | 3/9 (4.40) |
| Q96E V97Y | 3.60 / 3.35 / n.d. | 2/9 (4.37) |
| D91K Q96S F98P | n.d. / n.d. / n.d. | 2/9 (4.17) |
| S92C G94L Q96M | 3.22 / 3.53 / 2.57 | 1/9 (3.28) |
| N33M G49C Q96D | 3.91 / n.d. / 4.40 | 3/9 (4.85) |
| G24E S55D Q96D | 3.80 / 4.22 / n.d. | 1/9 (4.19) |
| Y29D Y30E Q96G | 2.02 / 2.11 / 1.87 | 1/9 (4.57) |
| S93C Q96N V97W | 3.74 / 2.51 / 4.10 | 3/9 (3.69) |
| S26M Q96V | 2.57 / 2.23 / n.d. | 2/9 (3.72) |
| R28V Y29E Q96C | n.d. / n.d. / 4.89 | 5/9 (4.22) |
| R28L N51L Q96K | n.d. / n.d. / n.d. | 5/9 (3.79) |
| S55G Q96N V97T | n.d. / n.d. / n.d. | 3/9 (3.11) |
| G49K Q96D V97R | n.d. / n.d. / n.d. | 4/9 (4.40) |
| N33D S93T Q96C | n.d. / n.d. / 3.39 | 2/9 (3.14) |
| D25M Q96R | 2.17 / 2.71 / 2.36 | 2/9 (3.58) |
| S89T Q96D | 2.73 / 3.15 / 3.65 | 4/9 (3.45) |
| N33L Q96T F98V | 3.48 / 4.99 / n.d. | 4/9 (4.17) |
| K50R N52D Q96Y | 2.85 / 2.57 / 2.41 | 1/9 (3.90) |

Top 4 of the variants detected in all replicates, tightest first:

| changes | log10 Kd (nM) by replicate | signal with controls |
|---|---|---|
| E23S Y30Q Q96H | 0.67 / 0.64 / -0.07 | 3/9 (4.40) |
| Y29D Y30E Q96G | 2.02 / 2.11 / 1.87 | 1/9 (4.57) |
| S92R Q96F | 2.42 / 2.17 / 2.15 | 3/9 (3.52) |
| D25M Q96R | 2.17 / 2.71 / 2.36 | 2/9 (3.58) |